{"source": "ChEMBL document CHEMBL1158479", "about": "“Synthesis and preliminary in vitro biological evaluation of 4-[(4-hydroxyphenyl)sulfanyl]but-3-en-2-one, a 4-mercaptophenol derivative designed as a novel bifunctional antimelanoma agent” (J Med Chem, 2009)", "proteins": {"B1": {"name": "Tyrosinase (Agaricus bisporus), O42713 (protein)", "chain": "MSLIATVGPTGGVKNRLNIVDFVKNEKFFTLYVRSLELLQAKEQHDYSSFFQLAGIHGLPFTEWAKERPSMNLYKAGYCTHGQVLFPTWHRTYLSVLEQILQGAAIEVAKKFTSNQTDWVQAAQDLRQPYWDWGFELMPPDEVIKNEEVNITNYDGKKISVKNPILRYHFHPIDPSFKPYGDFATWRTTVRNPDRNRREDIPGLIKKMRLEEGQIREKTYNMLKFNDAWERFSNHGISDDQHANSLESVHDDIHVMVGYGKIEGHMDHPFFAAFDPIFWLHHTNVDRLLSLWKAINPDVWVTSGRNRDGTMGIAPNAQINSETPLEPFYQSGDKVWTSASLADTARLGYSYPDFDKLVGGTKELIRDAIDDLIDERYGSKPSSGARNTAFDLLADFKGITKEHKEDLKMYDWTIHVAFKKFELKESFSLLFYFASDGGDYDQENCFVGSINAFRGTAPETCANCQDNENLIQEGFIHLNHYLARDLESFEPQDVHKFLKEKGLSYKLYSRGDKPLTSLSVKIEGRPLHLPPGEHRPKYDHTQARVVFDDVAVHVIN"}}, "details_in_all_cases": "Agaricus bisporus", "key": {"[1]": {"substrate": "CC(=O)/C=C/Sc1ccc(O)cc1", "assay": "(§1) Ratio of Kcat to Km of mushroom tyrosinase", "in_short": "(§2)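 Mushroom tyrosinase kinetics were run by measuring the initial rate of enzyme-catalyzed o-quinone formation over increasing substrate concentrations. Km and Vmax were derived from these rates, and kcat and kcat/Km were calculated from them.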"}, "[2]": {"substrate": "CC(=O)/C=C\\Sc1ccc(O)cc1", "assay": "as §1", "in_short": "as §2"}, "[3]": {"substrate": "Oc1ccc(SSc2ccc(O)cc2)cc1", "assay": "as §1", "in_short": "as §2"}, "[4]": {"substrate": "CC(=O)/C=C/Sc1ccc(O)cc1", "assay": "(§3) Activity of mushroom tyrosinase assessed as o-quinone formation", "in_short": "as §2"}, "[5]": {"substrate": "CC(=O)/C=C\\Sc1ccc(O)cc1", "assay": "as §3", "in_short": "as §2"}, "[6]": {"substrate": "Oc1ccc(SSc2ccc(O)cc2)cc1", "assay": "as §3", "in_short": "as §2"}}, "data": [{"protein": "B1", "values": [{"measurement": "kcat/Km", "setting": "[1]", "value": 155000}, {"measurement": "kcat/Km", "setting": "[2]", "value": 96400}, {"measurement": "kcat/Km", "setting": "[3]", "value": 32700}, {"measurement": "Km", "setting": "[4]", "value": 19.8, "unit": "µM"}, {"measurement": "kcat", "setting": "[4]", "value": 3.07, "unit": "s⁻¹"}, {"measurement": "Km", "setting": "[5]", "value": 36.3, "unit": "µM"}, {"measurement": "kcat", "setting": "[5]", "value": 3.49, "unit": "s⁻¹"}, {"measurement": "Km", "setting": "[6]", "value": 16.4, "unit": "µM"}, {"measurement": "kcat", "setting": "[6]", "value": 1.52, "unit": "s⁻¹"}]}]}
